biological target: T1, human CH24H (Homo sapiens, UniProt Q9Y6A2); assay: Measurement of CH24H inhibitory activity (24-HC produced from [14C] cholesterol by human CH24H lysate); assay type: biochemical; conditions: 1 μM test compound, [14C] cholesterol 15 μM, 37° C. for 5 hr, read-out: Inhibitory Rate in 1 μM (%)
T1 construct: Using Full-Length Mammalian Gene Collection No. 4819975 (Invitrogen) as a template; made in house; host or cells: FreeStyle 293-F cells, transient transfection with pcDNA3.1(+)/hCH24H; lysate supernatant, not purified
Procedure: The expression of human CH24H was performed using FreeStyle 293 Expression System (Invitrogen). […] After transfection, the cells were cultured at 37° C., 8% CO2 with shaking at 125 rpm for 2 days. The cells were collected by centrifugation, and suspended in a suspension buffer (100 mM potassium phosphate (pH 7.4), 0.1 mM EDTA, 1 mM DTT, 20% Glycerol). The suspended product was disrupted by a polytron homogenizer (manufactured by Kinematica), and centrifuged at 9000×g for 10 min, and the supernatant was collected. The collected supernatant was cryopreserved (−80° C.) as a human CH24H lysate standard product.
For the measurement of CH24H inhibitory activity, using the human CH24H lysate prepared in Experimental Example 2, the amount of 24-HC produced from cholesterol by catalytic activity of CH24H was measured in the presence of a test compound, and compared with that measured in the absence of the test compound. That is, a test compound solution at various concentrations was mixed with a reaction buffer (50 mM potassium phosphate containing 0.1% BSA and Complete, EDTA-free, pH 7.4) and human CH24H lysate. Then, [^14C] cholesterol (53 mCi/mmol specific activity, 15 μM) was added, and CH24H reaction was performed at 37° C. for 5 hr. After completion of the reaction, a quenching solution consisting of chloroform/methanol/distilled water (2:2:1 v/v) was added, and the resulting 24-HC was extracted by shaking. The extract was applied to silica gel thin layer chromatography (ethyl acetate:toluene=4:6), and the obtained ^14C-24HC fraction was measured with BAS2500 (Fujifilm Corporation).
The inhibitory rate (%) was calculated from the ratio of radioactivity in the presence of a test compound relative to the radioactivity in the absence of the test compound.

The chains behind the UniProt entries cited, without tags or fusion partners. Where a name states a change or a piece, a line headed by the entry shows the natural chain unless it says otherwise.
UniProt Q9Y6A2: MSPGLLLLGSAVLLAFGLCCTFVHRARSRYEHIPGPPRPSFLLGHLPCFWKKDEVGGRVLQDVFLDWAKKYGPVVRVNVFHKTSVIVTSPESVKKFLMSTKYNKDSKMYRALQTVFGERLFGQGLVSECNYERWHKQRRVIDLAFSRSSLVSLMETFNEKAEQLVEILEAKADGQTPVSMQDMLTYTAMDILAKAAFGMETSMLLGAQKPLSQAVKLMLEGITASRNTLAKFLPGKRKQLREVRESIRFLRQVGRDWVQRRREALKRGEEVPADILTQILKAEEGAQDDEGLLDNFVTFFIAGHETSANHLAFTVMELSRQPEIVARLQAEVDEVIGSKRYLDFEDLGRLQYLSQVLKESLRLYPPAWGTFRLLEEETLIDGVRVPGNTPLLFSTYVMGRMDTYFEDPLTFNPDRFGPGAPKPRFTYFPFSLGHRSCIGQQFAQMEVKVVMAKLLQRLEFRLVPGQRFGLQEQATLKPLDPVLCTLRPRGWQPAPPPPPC

| SMILES | inhibition at 1 µM [%] |
| --- | --- |
| CN(C)C(=O)C1CCN(c2cnccc2-n2cc(C3CC3)cn2)CC1 [Example 59, 1-(4-(4-cyclopropyl-1H-pyrazol-1-yl)pyridin-3-yl)-N,N-dimethylpiperidine-4-carboxamide] | 92 |
| O=C(NC1CC1)N1CCN(c2cnccc2-c2ccccc2)CC1 [Example 153, N-cyclopropyl-4-(4-phenylpyridin-3-yl)piperazine-1-carboxamide] | 85 |
| CN(C)C(=O)C1CCN(c2cnccc2-n2cc(Br)cn2)CC1 [Example 43, 1-(4-(4-bromo-1H-pyrazol-1-yl)pyridin-3-yl)-N,N-dimethylpiperidine-4-carboxamide] | 98 |
| Cc1cnn(-c2ccncc2N2CCC(C(=O)N(C)C)CC2)c1 [Example 194, N,N-dimethyl-1-(4-(4-methyl-1H-pyrazol-1-yl)pyridin-3-yl)piperidine-4-carboxamide] | 93 |
| O=C(NC1CC1)C1CCN(c2cncnc2-c2ccccc2)CC1 [Example 180, N-cyclopropyl-1-(4-phenylpyrimidin-5-yl)piperidine-4-carboxamide] | 87 |
| O=C(NC1CC1)C1CCN(c2cnccc2-c2ccccc2)CC1 [Example 172, N-cyclopropyl-1-(4-phenylpyridin-3-yl)piperidine-4-carboxamide] | 96 |

Source: patent publication US9643957B2, “Heterocyclic compounds having cholesterol 24-hydroxylase activity” (TAKEDA PHARMACEUTICAL COMPANY LIMITED, priority 2012, dated 2017)
